For one series, the system named is MT4. The series is described as follows: (§1) Cytotoxicity in mock-infected human MT4 cells assessed as reduction in cell viability incubated for 5 days by MTT assay. It counts as ADME, cell-based. Particulars: mt4, 120 h. Background: Tetrazolium dyes change colour on reduction, which living cells bring about.
Series [1] can be described thus: in vivo. The following applies: Kunming, mouse, iv, 2 mg/kg.
A short description of series [2]: in vivo. The following applies: Wistar, rat, iv, 2 mg/kg.
Series [3] can be described thus: in vivo. Particulars: Wistar, rat, iv, 2 mg/kg. The source holds these as a separate data set.
For a further series, the target named is Cytochrome P450 3A4 (Homo sapiens, UniProt P08684).
Series [4] can be described thus: in vivo. Particulars: Kunming, mouse, iv, 2 mg/kg. The source holds these as a separate data set.
Series [5] is described as follows: in vivo.
The nature of series [6]: in vivo. The following applies: Kunming, mouse, iv, 2 mg/kg. This is another data set of the same source.
Series [7] in a line: in vivo. This is another data set of the same source.
Series [8] is described as follows: in vivo. The following applies: Wistar, rat, po, 10 mg/kg.
Series [9] deals with Voltage-gated inwardly rectifying potassium channel KCNH2 (Homo sapiens, UniProt Q12809).
The nature of series [10]: in vivo. Particulars: Wistar, rat, po, 10 mg/kg. This is another data set of the same source.
A short description of series [11]: in vivo. The following applies: Wistar, rat, iv, 2 mg/kg. This is another data set of the same source.
Series [12] in a line: in vivo. Particulars: Kunming, mouse, iv, 2 mg/kg. The source holds these as a separate data set.
Series [13] can be described thus: in vivo. The following applies: Kunming, mouse, po, 10 mg/kg.
A further series concerns the target Cytochrome P450 2C19 (Homo sapiens, UniProt P33261).
A short description of series [14]: in vivo. Particulars: Kunming, mouse, po, 10 mg/kg. The source holds these as a separate data set.
The target of another series is Cytochrome P450 1A2 (Homo sapiens, UniProt P05177).
The target in a further series is Cytochrome P450 2C9 (Homo sapiens, UniProt P11712).
The nature of series [15]: in vivo. The following applies: Kunming, mouse, iv, 2 mg/kg. This is another data set of the same source.
Series [16] can be described thus: in vivo. The following applies: Kunming, mouse, iv, 2 mg/kg. The source holds these as a separate data set.
Series [17] is described as follows: in vivo. Particulars: Wistar, rat, iv, 2 mg/kg. The source holds these as a separate data set.
The nature of series [18]: as §1. The following applies: mock-infected MT4 cells. It counts as ADME, cell-based.

Protein sequences, listed by entry. Tags and fused reporters are not part of them. Lines headed by an entry give the natural chain unless they say otherwise; changes in a name come on top.
UniProt P08684, whole entry: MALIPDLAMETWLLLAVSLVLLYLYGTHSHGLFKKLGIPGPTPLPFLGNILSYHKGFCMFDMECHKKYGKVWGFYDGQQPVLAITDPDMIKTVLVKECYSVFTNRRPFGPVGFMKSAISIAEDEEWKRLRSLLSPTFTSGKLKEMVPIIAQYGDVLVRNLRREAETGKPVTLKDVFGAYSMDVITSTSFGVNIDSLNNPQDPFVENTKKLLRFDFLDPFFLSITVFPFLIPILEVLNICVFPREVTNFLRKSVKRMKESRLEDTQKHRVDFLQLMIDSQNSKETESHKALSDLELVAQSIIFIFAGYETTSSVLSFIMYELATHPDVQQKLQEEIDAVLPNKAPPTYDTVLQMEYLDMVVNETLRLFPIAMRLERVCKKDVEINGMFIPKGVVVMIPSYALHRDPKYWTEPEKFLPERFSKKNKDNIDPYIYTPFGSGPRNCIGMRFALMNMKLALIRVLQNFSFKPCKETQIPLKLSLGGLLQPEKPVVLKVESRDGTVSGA
UniProt Q12809: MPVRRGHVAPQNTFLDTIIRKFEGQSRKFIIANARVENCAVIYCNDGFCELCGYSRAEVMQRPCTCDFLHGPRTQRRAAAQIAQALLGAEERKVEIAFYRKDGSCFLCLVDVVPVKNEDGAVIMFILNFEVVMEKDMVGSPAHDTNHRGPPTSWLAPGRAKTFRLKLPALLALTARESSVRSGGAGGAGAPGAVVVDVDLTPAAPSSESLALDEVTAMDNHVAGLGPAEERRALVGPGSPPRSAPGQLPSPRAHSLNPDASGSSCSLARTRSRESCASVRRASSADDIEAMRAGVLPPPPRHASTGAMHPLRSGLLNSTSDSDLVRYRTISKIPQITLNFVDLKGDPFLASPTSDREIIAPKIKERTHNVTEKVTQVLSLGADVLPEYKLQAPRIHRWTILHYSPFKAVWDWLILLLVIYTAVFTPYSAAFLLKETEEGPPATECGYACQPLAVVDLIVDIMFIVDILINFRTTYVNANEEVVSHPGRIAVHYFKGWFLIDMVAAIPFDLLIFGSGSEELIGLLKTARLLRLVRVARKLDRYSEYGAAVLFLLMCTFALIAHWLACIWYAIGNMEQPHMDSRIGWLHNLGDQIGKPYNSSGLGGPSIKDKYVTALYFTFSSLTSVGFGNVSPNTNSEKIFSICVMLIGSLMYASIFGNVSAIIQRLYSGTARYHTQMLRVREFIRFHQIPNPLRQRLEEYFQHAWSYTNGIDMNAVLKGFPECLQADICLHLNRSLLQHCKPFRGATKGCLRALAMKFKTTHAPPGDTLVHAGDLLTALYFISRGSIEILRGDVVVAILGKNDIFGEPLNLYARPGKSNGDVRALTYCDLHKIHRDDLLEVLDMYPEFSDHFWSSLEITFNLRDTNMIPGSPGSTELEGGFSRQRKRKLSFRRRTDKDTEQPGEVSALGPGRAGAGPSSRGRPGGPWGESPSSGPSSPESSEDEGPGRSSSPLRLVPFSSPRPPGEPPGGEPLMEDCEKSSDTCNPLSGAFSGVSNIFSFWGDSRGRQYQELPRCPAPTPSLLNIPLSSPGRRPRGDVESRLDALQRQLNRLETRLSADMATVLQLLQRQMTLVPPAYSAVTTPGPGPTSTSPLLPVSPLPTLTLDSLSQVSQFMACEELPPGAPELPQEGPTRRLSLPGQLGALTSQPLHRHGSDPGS
UniProt P33261, whole entry: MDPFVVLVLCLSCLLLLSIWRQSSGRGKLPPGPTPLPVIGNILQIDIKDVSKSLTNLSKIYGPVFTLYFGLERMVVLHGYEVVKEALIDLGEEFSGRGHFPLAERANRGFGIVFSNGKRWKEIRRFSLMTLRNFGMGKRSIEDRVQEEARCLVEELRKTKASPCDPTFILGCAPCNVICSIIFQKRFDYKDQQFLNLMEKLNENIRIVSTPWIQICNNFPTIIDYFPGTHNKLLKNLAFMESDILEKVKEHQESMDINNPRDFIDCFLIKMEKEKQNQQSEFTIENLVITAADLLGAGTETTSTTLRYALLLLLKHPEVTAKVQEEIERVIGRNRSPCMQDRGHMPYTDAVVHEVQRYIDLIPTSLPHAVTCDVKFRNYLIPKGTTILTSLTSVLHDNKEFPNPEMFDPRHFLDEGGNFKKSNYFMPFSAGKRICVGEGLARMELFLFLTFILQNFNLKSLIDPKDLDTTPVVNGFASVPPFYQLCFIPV
UniProt P05177, whole entry: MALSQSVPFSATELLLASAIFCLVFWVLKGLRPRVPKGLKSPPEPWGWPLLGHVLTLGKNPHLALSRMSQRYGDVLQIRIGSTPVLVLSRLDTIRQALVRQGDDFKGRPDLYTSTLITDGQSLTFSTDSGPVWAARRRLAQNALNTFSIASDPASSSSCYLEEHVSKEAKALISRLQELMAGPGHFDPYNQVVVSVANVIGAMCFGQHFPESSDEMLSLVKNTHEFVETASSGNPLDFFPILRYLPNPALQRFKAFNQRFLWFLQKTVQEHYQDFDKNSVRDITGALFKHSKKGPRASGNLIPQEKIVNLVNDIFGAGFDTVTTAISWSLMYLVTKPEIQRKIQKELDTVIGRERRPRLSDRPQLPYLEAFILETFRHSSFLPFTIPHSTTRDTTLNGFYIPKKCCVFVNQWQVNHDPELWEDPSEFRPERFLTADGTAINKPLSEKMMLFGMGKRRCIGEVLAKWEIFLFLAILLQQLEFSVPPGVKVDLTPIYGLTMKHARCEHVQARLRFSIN
UniProt P11712, whole entry: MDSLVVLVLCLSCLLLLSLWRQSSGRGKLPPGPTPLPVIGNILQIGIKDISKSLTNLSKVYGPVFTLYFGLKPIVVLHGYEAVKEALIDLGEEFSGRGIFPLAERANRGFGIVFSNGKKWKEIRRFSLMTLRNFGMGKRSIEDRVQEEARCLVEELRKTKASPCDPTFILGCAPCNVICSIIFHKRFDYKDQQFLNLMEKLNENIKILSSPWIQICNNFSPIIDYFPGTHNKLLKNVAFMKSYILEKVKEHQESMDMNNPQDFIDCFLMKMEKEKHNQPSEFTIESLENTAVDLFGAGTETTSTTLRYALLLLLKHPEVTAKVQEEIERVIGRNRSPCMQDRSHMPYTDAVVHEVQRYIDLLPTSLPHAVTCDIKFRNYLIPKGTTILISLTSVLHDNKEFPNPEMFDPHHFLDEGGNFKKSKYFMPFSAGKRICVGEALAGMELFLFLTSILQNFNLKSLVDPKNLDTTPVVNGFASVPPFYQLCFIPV

By CC50 is commonly meant the concentration giving 50% cytotoxicity. A word on the AUC(0-inf): it is total exposure, with the tail of the curve extrapolated. In general, AUC(0-t) refers to exposure summed from dosing to a finite time, without extrapolation to infinity. By Cmax is commonly meant the highest concentration seen after dosing. The IC50 is the midpoint of a concentration-inhibition curve. High values mean a need for much substance, low ones inhibition by little substance. The clearance is a measure of how efficiently the substance is removed, as volume per time. A higher clearance goes with a high capacity for elimination. As a reminder, the Vd is a proportionality between amount in the body and measured concentration, not a real space. A word on the half-life: it is the time in which the quantity being followed falls by half. Read a high half-life as slow decline.

Take `Cc1cc(C#N)cc(C)c1Oc1nc(Nc2ccc(C#N)cc2C(F)(F)F)nc2sccc12`: in the series on MT4, the CC50 was more than 268 µM.

On to `Cc1cc(C#N)cc(C)c1Oc1nc(Nc2ccc(C#N)c(F)c2)nc2sccc12`, for which the CC50 in the series on MT4 was more than 300 µM.

For the compound `Cc1cc(/C=C/C#N)cc(C)c1Oc1nc(Nc2ccc(C#N)c(F)c2)nc2ccsc12`, the area under the curve AUC(0-inf) came to 4720 ng·h/mL in “in vivo [1]” and 27900 ng·h/mL in the series “in vivo [7]”. Besides, the AUC(0-t) in “in vivo [2]” was determined as 88100 ng·h/mL; in the series “in vivo [10]” it was 25800 ng·h/mL; in the series “in vivo [12]”, 4680 ng·h/mL; in the series “in vivo [14]” it was 1240 ng·h/mL. The highest concentration (Cmax) in the series “in vivo [3]” was determined as 269 µg/mL; in the series “in vivo [5]” it was 9.72 µg/mL; in “in vivo [15]” it was 186 µg/mL. Also, the IC50 against Cytochrome P450 3A4 is more than 50 µM; in [9] it was more than 30 µM; on Cytochrome P450 2C19 it was 5.85 µM; at Cytochrome P450 1A2, more than 50 µM; against Cytochrome P450 2C9 it was 1.99 µM. In addition, the clearance in “in vivo [4]” was 7 mL/min/kg. Further, the Vd in the series “in vivo [6]” worked out at 0.38 L/kg; in “in vivo [17]” it was 0.29 L/kg. The half-life in the series “in vivo [8]” was 8.82 h; in the series “in vivo [11]”, 0.89 h; in “in vivo [13]”, 6.38 h; in the series “in vivo [16]”, 4.67 h. Besides, in the series on MT4, the cytotoxic concentration (CC50) turned out to be 155 µM.

On to `Cc1cc(C#N)cc(C)c1Oc1nc(Nc2ccc(C#N)c(F)c2)nc2c1COC2`, for which the half-maximal cytotoxic concentration (CC50) in the series with MT4 was more than 312 µM.

As to `Cc1cc(C#N)cc(C)c1Oc1nc(Nc2ccc(C#N)c(F)c2)nc2c1CSC2`, the CC50 in the series on MT4 is more than 300 µM.

Consider `Cc1cc(C#N)cc(C)c1Oc1ccnc(Nc2ccc(C#N)c(F)c2)n1`, for which the CC50 in the series on MT4 is more than 348 µM.

In the case of `Cc1cc(C#N)cc(C)c1Oc1nc(Nc2ccc(C#N)c(F)c2)nc2ncsc12`, the CC50 in the series on MT4 stood at 125 µM.

Turning to `Cc1cc(C#N)cc(C)c1Oc1nc(Nc2ccc(C#N)c(F)c2)nc2ccsc12`, the CC50 with MT4 is more than 300 µM.

As to `Cc1cc(/C=C/C#N)cc(C)c1Oc1nc(Nc2ccc(C#N)c(F)c2F)nc2ccsc12`, the CC50 with MT4 worked out at 102 µM.

For the compound `Cc1cc(C#N)cc(C)c1Oc1nc(Nc2ccc(C#N)c(F)c2)nc2c1CCC2`, the CC50 with MT4 is more than 313 µM.

Regarding `Cc1cc(C#N)cc(C)c1Oc1nc(Nc2ccc(C#N)cc2C(F)(F)F)nc2ccsc12`, in the series with MT4, the CC50 amounted to 237 µM.

With `Cc1cc(/C=C/C#N)cc(C)c1Oc1nc(Nc2ccc(C#N)c(C(F)(F)F)c2)nc2sccc12`, the CC50 with MT4 was determined as 193 µM.

For `Cc1cc(C#N)cc(C)c1Oc1nc(Nc2ccc(C#N)c(F)c2)nc2c1SCC2`, in the series with MT4, the CC50 was 226 µM.

Consider `Cc1cc(C#N)cc(C)c1Oc1nc(Nc2ccc(C#N)c(F)c2)nc2c1CCCC2`, for which the CC50 in the series with MT4 amounted to 173 µM.

In turn, `Cc1cc(/C=C/C#N)cc(C)c1Oc1nc(Nc2ccc(C#N)cc2F)nc2sccc12` showed a concentration for half-maximal inhibition (IC50) in series [9] of 0.18 µM. Moreover, in the series with MT4, the CC50 amounted to 264 µM.

For the compound `Cc1cc(/C=C/C#N)cc(C)c1Oc1nc(Nc2ccc(C#N)cc2C(F)(F)F)nc2sccc12`, the CC50 in the series on MT4 was more than 254 µM.

As for `Cc1cc(/C=C/C#N)cc(C)c1Oc1nc(Nc2ccc(C#N)c(F)c2)nc2sccc12`, the CC50 in the series on MT4 was 262 µM.

As to `Cc1cc(C#N)cc(C)c1Oc1nc(Nc2ccc(C#N)c(F)c2)nc2cccc(F)c12`, the CC50 in the series with MT4 was found to be 171 µM.

On to `Cc1cc(C#N)cc(C)c1Oc1nc(Nc2ccc(C#N)c(C(F)(F)F)c2)nc2ccsc12`, for which the CC50 in the series on MT4 was 255 µM.

Regarding `Cc1cc(C#N)cc(C)c1Oc1nc(Nc2ccc(C#N)cc2F)nc2sccc12`, the cytotoxic concentration (CC50) in the series with MT4 was more than 300 µM.

In the case of `Cc1cc(C#N)cc(C)c1Oc1nc(Nc2ccc(C#N)c(C(F)(F)F)c2)nc2sccc12`, the CC50 in the series with MT4 was more than 268 µM.

`Cc1cc(C#N)cc(C)c1Oc1cc(Cl)nc(Nc2ccc(C#N)c(F)c2)n1`: the CC50 in the series with MT4 amounted to 245 µM.

For `Cc1cc(C#N)cc(C)c1Oc1nc(Nc2ccc(C#N)c(F)c2)nc2scnc12`, in the series on MT4, the half-maximal cytotoxic concentration (CC50) was found to be 176 µM.

For the compound `Cc1cc(C#N)cc(C)c1Oc1nc(Nc2ccc(C#N)cc2F)nc2ccsc12`, the CC50 in the series with MT4 is more than 300 µM.

As to `Cc1cc(C#N)cc(C)c1Oc1nc(Nc2ccc(C#N)c(F)c2F)nc2ccsc12`, in the series with MT4, the CC50 was more than 288 µM.

As for `Cc1cc(/C=C/C#N)cc(C)c1Oc1nc(Nc2ccc(C#N)cc2F)nc2ccsc12`, in the series with MT4, the cytotoxic concentration (CC50) amounted to 216 µM.

Regarding `Cc1cc(/C=C/C#N)cc(C)c1Oc1nc(Nc2ccc(C#N)cc2C(F)(F)F)nc2ccsc12`, the CC50 in the series with MT4 turned out to be 198 µM.

As to `Cc1cc(/C=C/C#N)cc(C)c1Oc1nc(Nc2ccc(C#N)c(C(F)(F)F)c2)nc2ccsc12`, the CC50 with MT4 stood at 238 µM.

Regarding `Cc1cc(/C=C/C#N)cc(C)c1Oc1nc(Nc2ccc(C#N)c(F)c2F)nc2sccc12`, the CC50 with MT4 came out at 240 µM.

Regarding `Cc1cc(C#N)cc(C)c1Oc1nc(Nc2ccc(C#N)c(F)c2)nc2cc[nH]c12`, the CC50 in the series on MT4 is 5.98 µM.

`Cc1cc(C#N)cc(C)c1Oc1nc(Nc2ccc(C#N)c(F)c2)nc2ccccc12`: in the series on MT4, the CC50 is 197 µM.

In the case of `Cc1cc(C#N)cc(C)c1Oc1nc(Nc2ccc(C#N)c(F)c2F)nc2sccc12`, the CC50 in the series on MT4 is more than 288 µM.

Take `Cc1cc(C#N)cc(C)c1Oc1nc(Nc2ccc(C#N)cc2)nc(N)c1Br` [ETRAVIRINE]: the CC50 at 120 h in series [18] is 4.58 to 4.59 µM.
